Reference: publication PMC11992225, “Antibacterial compounds against non-growing and intracellular bacteria” (npj Antimicrobials and Resistance, 2025)

Tested on: intracellular S. flexneri 5a M90T in TC7 cells
Format: cell-based, Shigella flexneri
Conditions: S. flexneri MIC in TSB versus intracellular IC50

CO[C@@]12[C@H](COC(N)=O)C3=C(C(=O)C(C)=C(N)C3=O)N1C[C@@H]1N[C@@H]12 [Mitomycin C]
MIC:IC50 ratio: > 2
